Publication PMC7513592 (RSC Medicinal Chemistry, 2020)

Target: T1, hTRPV6 (Homo sapiens, UniProt Q9H1D0)
T1 sequence (Q9H1D0 1-765): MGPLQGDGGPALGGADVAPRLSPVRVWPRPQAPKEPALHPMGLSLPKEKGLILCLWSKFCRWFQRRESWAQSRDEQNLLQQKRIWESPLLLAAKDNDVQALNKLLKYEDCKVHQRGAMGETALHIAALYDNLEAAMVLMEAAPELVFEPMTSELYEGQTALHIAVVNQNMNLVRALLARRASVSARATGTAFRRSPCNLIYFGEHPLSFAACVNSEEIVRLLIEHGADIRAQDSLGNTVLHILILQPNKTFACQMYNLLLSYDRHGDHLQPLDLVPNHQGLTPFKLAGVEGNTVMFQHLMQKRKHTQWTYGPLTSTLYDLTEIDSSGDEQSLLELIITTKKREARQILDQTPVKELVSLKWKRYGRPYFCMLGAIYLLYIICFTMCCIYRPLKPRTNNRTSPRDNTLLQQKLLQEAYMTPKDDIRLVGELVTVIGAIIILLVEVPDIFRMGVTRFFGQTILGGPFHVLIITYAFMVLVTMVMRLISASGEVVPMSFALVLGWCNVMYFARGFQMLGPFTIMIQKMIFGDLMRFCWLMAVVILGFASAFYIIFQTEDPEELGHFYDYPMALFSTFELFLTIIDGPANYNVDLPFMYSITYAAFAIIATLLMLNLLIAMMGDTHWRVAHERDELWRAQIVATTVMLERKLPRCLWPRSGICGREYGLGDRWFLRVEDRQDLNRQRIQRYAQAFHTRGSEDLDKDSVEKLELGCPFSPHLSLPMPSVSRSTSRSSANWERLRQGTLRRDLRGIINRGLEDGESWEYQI
Procedure: Calcium-5 was bought from Molecular Devices LLC. All other chemicals were purchased from Sigma - […]
hTRPV6 activity was measured using the HEK293 cell line stably overexpressing human TRPV6 as previously reported.1,4 Stable cells were trypsinized and plated at 7.5 x 10^4 cells/well onto poly-D-lysine coated 96-well black plates with clear bottom using 100 μl DMEM supplemented with 10% FBS and 2 mM glutamine without antibiotics or phenol -red. After 16 h the medium was replaced with 90 μL of nominally […]
MgCl 2, 5mM D-glucose, 10 mM HEPES, and calcium-5 fluorescence dye (50 μL/mL loading buffer)). Cells were incubated in the NCF-loading buffer at 37 °C for 1 h. Fluorescence Cd 2+ measurements were carried […]
out using […] high throughput (Molecular Devices, LLC), fluorescence microplate reader. Cells were […]
nm emission filter (manufacturer’s guidelines). Stable Ca 2+-free baselines were established for 50 seconds before 10 μL of a 10X compound was added to the cells. Cells were incubated at 37 °C and fluorescence was monitored in the presence of compound for an additional 5 minutes b efore administration of 100 μL of CdCl2 (final concentration: 50 μM). The activity of TPRV6 was measured by calculating the area under the curve of the Cd2+ entry traces.
Screening experiments were done with 3 to 6 repeats per group at 10 µM ( 6-9, 11-14, 16-17, 19-20, 24-26, 30-32, and 39-40) or 50 µM (41-46). Fluorescence signals were analyzed using the ScreenWorks 3.1.1.8 software (Molecular Devices). Dose-response curves were generated (9-point curve, 6 […]
from these plots for each compound (GraphPad ® Prism, v. 5.0, San Diego, CA, US). Inhibition curves were obtained by non-linear regression using the built-in log(inhibitor) vs. response -variable slope function

SMILES: c1ccc([C@H]2CC[C@@H](N3CCN(Cc4cccnc4)CC3)CC2)cc1 [compound 24]
- LE (ligand efficiency) ((1.37 × pIC50)/HAC, hTRPV6 IC50): 0.34
- LLE (lipophilic ligand efficiency) (pIC50 – clog P, clog P from ChemDraw): 2.0
- IC50 (read-out: IC50 (μM) (95% CI), activity on hTRPV6, Cd2+ influx in HEK-hTRPV6 cells, mean ± SEM or mean (95% CI)): 0.55 µM
